What was measured:
[1] = system: Salmonella strain TA 1535 carrying pBRTNluxAM or pBRTNluxAMmuc631; assay: Bioluminescent β-lactamase (β-lac) reverse mutagenicity assay
[2] = system: bioluminescent Salmonella tester strains (his- cells); assay: High throughput (pre-incubation) bioluminescent "Ames" mutagenicity assay; conditions: luminescent microcolonies, treated versus untreated wells

N-methyl-N′-nitro-nitrosoguanidine
mutagenic activity in bioluminescent β-lactamase assay ([1]; luminescent microcolonies, treated versus untreated wells, FIG. 8): detection of mutagenic activity | ability of the strain to detect mutagens (reversion to ampicillin resistance) ([1]; strain SApBRTNluxAM): ability of this strain to detect mutagens was confirmed | bioluminescent revertants after treatment (mutagenicity) ([2]; FIG. 4): detection of bioluminescent revertants | bioluminescent revertants after independent exposure (mutagenicity) ([2]; FIG. 5): detection of bioluminescent revertants

Source: patent publication US6956113B2 (priority 2000, dated 2005)
